According to patent US7731945B2, “Immunotherapy for reversing immune suppression” (Immuno-Rx, Inc., priority 2001, dated 2010):

Experiments:
[1] = tested on: renal cell and malignant melanoma; settings: cited from earlier work
[2] = tested on: splenocytes and thymocytes; assay: Hydrocortisone induced thymic involution in aged mice: in vivo treatment, splenocyte and thymocyte responses and markers; parameters: species or system mouse; settings: after in vivo i.p. treatment for five days, ratio to saline treated control
Description: The model of hydrocortisone induced thymic involution in aged mice was used unless otherwise indicated (Hadden J W, et al., Int'l J Immunopharmacol 17:821-828 (1995)).
Female BALB/c (Life Science, St. Petersburg, Fla.) aged retired breeder mice (8-9 months) whose thymuses had begun to involute were employed in in vivo tests. Mice were weight matched and randomly pooled in groups of five. Animals were fed standard laboratory diets with drinking water ad lib. All mice, with exception of a control group, were treated intraperitoneally (i.p.) with hydrocortisone (5 mg/mouse in 0.1 ml 0.9% sodium chloride) for two consecutive days to induce a chemical thymectomy and reduction of spleen weight.
Hydrocortisone-treated adult mice show acute thymic involution (less than 30% of control) and reduction in spleen size (less than 80% of control) at two days with progressive recovery to ten days.
Each treatment group had five animals and each experiment was repeated two to five times. […]
On day 8, the mice were weighed, sacrificed by cervical dislocation, and their spleens and thymuses removed and weighed. The organs were minced, the residual erythrocytes were lysed using ammonium chloride (Mishell and Shiigi (1981)), and the cells counted.
The proliferative response of the cells to various substances was then determined. […]

Substance | response rates [1] | proliferative responses of splenocytes to in vitro stimulation with IL-1, IL-2, NCM or ConA ([2]; FIG. 6) | proliferative responses of thymocytes to in vitro stimulation with IL-1, IL-2, NCM or ConA ([2]; FIG. 7)
IL-2: Interleukin-2 as used in prior art cancer treatment | less than 20% |  | 
rIL-2: recombinant interleukin-2 |  | no significant effect | no significant effect
